{"sequences": {"note": "By UniProt entry, the sequences of proteins in these tests, tags left out. Residues count along the entry.", "UniProt P22455, 22-802": "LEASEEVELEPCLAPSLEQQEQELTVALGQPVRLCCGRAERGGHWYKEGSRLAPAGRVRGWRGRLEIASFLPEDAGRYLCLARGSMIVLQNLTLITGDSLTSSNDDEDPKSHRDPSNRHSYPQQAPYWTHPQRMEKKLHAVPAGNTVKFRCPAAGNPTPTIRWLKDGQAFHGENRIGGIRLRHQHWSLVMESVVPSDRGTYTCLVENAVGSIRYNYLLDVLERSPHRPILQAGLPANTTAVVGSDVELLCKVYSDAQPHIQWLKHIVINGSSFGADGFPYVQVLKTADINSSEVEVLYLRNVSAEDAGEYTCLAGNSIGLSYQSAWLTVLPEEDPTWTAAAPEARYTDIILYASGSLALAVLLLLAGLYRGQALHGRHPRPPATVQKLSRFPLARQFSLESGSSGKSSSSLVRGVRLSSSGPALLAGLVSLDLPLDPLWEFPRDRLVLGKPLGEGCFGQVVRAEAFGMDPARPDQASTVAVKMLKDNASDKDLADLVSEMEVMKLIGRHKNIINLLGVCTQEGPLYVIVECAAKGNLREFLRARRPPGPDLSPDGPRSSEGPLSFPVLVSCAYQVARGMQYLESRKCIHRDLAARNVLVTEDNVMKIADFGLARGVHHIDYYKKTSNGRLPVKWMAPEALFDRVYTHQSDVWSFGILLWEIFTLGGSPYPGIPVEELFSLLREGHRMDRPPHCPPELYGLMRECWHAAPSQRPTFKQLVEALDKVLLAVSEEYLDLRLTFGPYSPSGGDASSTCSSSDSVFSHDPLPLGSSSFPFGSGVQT"}, "source": "patent EP3421457B1", "about": "“PYRIMIDINE FGFR4 INHIBITORS” (priority 2013, dated 2015)", "key": {"[1]": {"system": "JHH7 cells", "assay": "In vivo efficacy in tumor xenograft model", "parameters": "species or system Nude mice", "conditions": "for Complete Regression / Partial Regression / Progressive Disease / Stable Disease: 15 days, number of animals, n=10 per group"}, "[2]": {"system": "JHH7", "assay": "Cellular Viability assay to obtain GI50 (CellTiter-Glo)", "assay_type": "cell-based", "conditions": "Homo sapiens; JHH7, 72h, FGF19 amplified line"}, "[3]": {"system": "SNU398", "assay": "Cellular Viability assay to obtain GI50 (CellTiter-Glo)", "assay_type": "cell-based", "conditions": "Homo sapiens, SNU-398; SNU398, 72h, FGF19 non-amplified"}, "[4]": {"system": "HUH7", "assay": "Cellular Viability assay to obtain GI50 (CellTiter-Glo)", "assay_type": "cell-based", "conditions": "Homo sapiens, Huh-7; HUH7, 72h, FGF19 amplified line"}, "[5]": {"system": "HUH7 cells", "assay": "In vivo efficacy in tumor xenograft model", "parameters": "species or system Nude mice", "conditions": "for Complete Regression / Partial Regression / Progressive Disease / Stable Disease: HUH7 xenograft, 15 days, number of animals, n=10 per group"}, "[6]": {"system": "HEP3B", "assay": "Cellular Viability assay to obtain GI50 (CellTiter-Glo)", "assay_type": "cell-based", "conditions": "Homo sapiens, 72h, FGF19 amplified line"}, "[7]": {"system": "HEPG2", "assay": "Cellular Viability assay to obtain GI50 (CellTiter-Glo)", "assay_type": "cell-based", "conditions": "Homo sapiens; HEPG2, 72h, FGF19 non-amplified"}, "[8]": {"system": "SNU449", "assay": "Cellular Viability assay to obtain GI50 (CellTiter-Glo)", "assay_type": "cell-based", "conditions": "Homo sapiens, SNU-449; SNU449, 72h, FGF19 non-amplified"}, "[9]": {"system": "Hep3B", "assay": "In vivo efficacy in tumor xenograft model", "parameters": "species or system Nude mice", "conditions": "for Complete Regression / Partial Regression / Progressive Disease / Stable Disease: HEP3B xenograft, 15 days, number of animals, n=5 per group"}, "[10]": {"target": "T1, FGFR4 (Homo sapiens, UniProt P22455)", "T1 construct": "purchased Invitrogen", "assay": "IC50 Profiling of Kinase Activity Inhibition (Kinase HotSpot assay)", "assay_type": "biochemical"}, "[11]": {"conditions": "JHH7 xenograft, 12.5 mg/kg twice daily i.p."}, "[12]": {"conditions": "JHH7 xenograft, 25 mg/kg twice daily i.p."}, "[13]": {"conditions": "JHH7 xenograft, 37.5 mg/kg twice daily i.p."}}, "note": "Structures can show the parent of a compound that is named as a salt. Where two headings read alike, the source gives them in different places."}
{"smiles": "C=CC(=O)Nc1cc(N2CCN(CC)CC2)ccc1Nc1cc(N(C)C(=O)Nc2c(Cl)c(OC)cc(OC)c2Cl)ncn1", "note": "[Compound 108, N-(2-(6-(3-(2,6-Dichloro-3,5-dimethoxyphenyl)-1-methylureido)pyrimidin-4-ylamino)-5-(4-ethylpiperazin-1-yl)phenyl)acrylamide]", "values": [{"measurement": "sensitivity to compound 108", "setting": "[1]; JHH7 xenograft model, compared among the three models", "result": "the least sensitive"}, {"measurement": "response category", "setting": "[1]; JHH7 xenograft, all dose levels tested", "result": "Progressive Disease in all dose levels tested"}, {"measurement": "Complete Regression", "setting": "[1]; [11]", "result": 0}, {"measurement": "Partial Regression", "setting": "[1]; [11]", "result": 0}, {"measurement": "Progressive Disease", "setting": "[1]; [11]", "result": 10}, {"measurement": "Stable Disease", "setting": "[1]; [11]", "result": 0}, {"measurement": "Complete Regression", "setting": "[1]; [12]", "result": 0}, {"measurement": "Partial Regression", "setting": "[1]; [12]", "result": 0}, {"measurement": "Progressive Disease", "setting": "[1]; [12]", "result": 10}, {"measurement": "Stable Disease", "setting": "[1]; [12]", "result": 0}, {"measurement": "Complete Regression", "setting": "[1]; [13]", "result": 0}, {"measurement": "Partial Regression", "setting": "[1]; [13]", "result": 0}, {"measurement": "Progressive Disease", "setting": "[1]; [13]", "result": 10}, {"measurement": "Stable Disease", "setting": "[1]; [13]", "result": 0}, {"measurement": "GI50", "setting": "[2]", "result": "216 ± 70", "unit": "nM"}, {"measurement": "GI50", "setting": "[3]", "result": "> 10000", "unit": "nM"}, {"measurement": "GI50", "setting": "[4]", "result": "408 ± 128", "unit": "nM"}, {"measurement": "sensitivity to compound 108", "setting": "[5]; HUH7 xenograft model, compared among the three models", "result": "intermediate sensitivity"}, {"measurement": "Complete Regression", "setting": "[5]; 25 mg/kg twice daily i.p.", "result": 1}, {"measurement": "Partial Regression", "setting": "[5]; 25 mg/kg twice daily i.p.", "result": 4}, {"measurement": "Progressive Disease", "setting": "[5]; 25 mg/kg twice daily i.p.", "result": 2}, {"measurement": "Stable Disease", "setting": "[5]; 25 mg/kg twice daily i.p.", "result": 3}, {"measurement": "Complete Regression", "setting": "[5]; 37.5 mg/kg twice daily i.p.", "result": 2}, {"measurement": "Partial Regression", "setting": "[5]; 37.5 mg/kg twice daily i.p.", "result": 5}, {"measurement": "Progressive Disease", "setting": "[5]; 37.5 mg/kg twice daily i.p.", "result": 0}, {"measurement": "Stable Disease", "setting": "[5]; 37.5 mg/kg twice daily i.p.", "result": 3}, {"measurement": "GI50", "setting": "[6]", "result": "18 ± 6", "unit": "nM"}, {"measurement": "GI50", "setting": "[7]", "result": "6510 ± 1420", "unit": "nM"}, {"measurement": "GI50", "setting": "[8]", "result": "> 10000", "unit": "nM"}, {"measurement": "sensitivity to compound 108", "setting": "[9]; HEP3B xenograft model, compared among the three models", "result": "the most sensitive"}, {"measurement": "Complete Regression", "setting": "[9]; 12.5 mg/kg twice daily i.p.", "result": 0}, {"measurement": "Partial Regression", "setting": "[9]; 12.5 mg/kg twice daily i.p.", "result": 0}, {"measurement": "Progressive Disease", "setting": "[9]; 12.5 mg/kg twice daily i.p.", "result": 5}, {"measurement": "Stable Disease", "setting": "[9]; 12.5 mg/kg twice daily i.p.", "result": 0}, {"measurement": "Complete Regression", "setting": "[9]; 25 mg/kg twice daily i.p.", "result": 0}, {"measurement": "Partial Regression", "setting": "[9]; 25 mg/kg twice daily i.p.", "result": 1}, {"measurement": "Progressive Disease", "setting": "[9]; 25 mg/kg twice daily i.p.", "result": 0}, {"measurement": "Stable Disease", "setting": "[9]; 25 mg/kg twice daily i.p.", "result": 4}, {"measurement": "Complete Regression", "setting": "[9]; 37.5 mg/kg twice daily i.p.", "result": 5}, {"measurement": "Partial Regression", "setting": "[9]; 37.5 mg/kg twice daily i.p.", "result": 0}, {"measurement": "Progressive Disease", "setting": "[9]; 37.5 mg/kg twice daily i.p.", "result": 0}, {"measurement": "Stable Disease", "setting": "[9]; 37.5 mg/kg twice daily i.p.", "result": 0}]}
{"smiles": "C=C(F)C(=O)Nc1ccccc1Nc1cc(N(C)C(=O)Nc2c(Cl)c(OC)cc(OC)c2Cl)ncn1", "note": "[Compound 110, N-(2-(6-(3-(2,6-dichloro-3,5-dimethoxyphenyl)-1-methylureido)pyrimidin-4-ylamino)-phenyl)-2-fluoroacrylamide]", "values": [{"measurement": "IC50", "setting": "[10]; Table 1, read-out: FGFR4 IC50", "result": 27, "unit": "nM"}]}
{"smiles": "C=CC(=O)Nc1cc(N2CCOCC2)ccc1Nc1cc(N(C)C(=O)Nc2c(Cl)c(OC)cc(OC)c2Cl)ncn1", "note": "[Compound 123, N-(2-{6-[3-(2,6-Dichloro-3,5-dimethoxy-phenyl)-1-methyl-ureido]-pyrimidin-4-ylamino}-5-morpholin-4-yl-phenyl)-acrylamide]", "values": [{"measurement": "IC50", "setting": "[10]; Table 1, read-out: FGFR4 IC50", "result": "< 1", "unit": "nM"}]}
{"smiles": "C=CC(=O)Nc1cc(OCCOC)ccc1Nc1cc(N(C)C(=O)Nc2c(Cl)c(OC)cc(OC)c2Cl)ncn1", "note": "[Compound 142, N-(2-((6-(3-(2,6-dichloro-3,5-dimethoxyphenyl)-1-methylureido)pyrimidin-4-yl)amino)-5-(2-methoxyethoxy)phenyl)acrylamide]", "values": [{"measurement": "IC50", "setting": "[10]", "result": "< 1", "unit": "nM"}]}
{"smiles": "C=CC(=O)Nc1cc(C(=O)N2CCN(C)CC2)ccc1Nc1cc(N(C)C(=O)Nc2c(Cl)c(OC)cc(OC)c2Cl)ncn1", "note": "[Compound 148, N-(2-((6-(3-(2,6-dichloro-3,5-dimethoxyphenyl)-1-methylureido)pyrimidin-4-yl)amino)-5-(4-methylpiperazine-1-carbonyl)phenyl)acrylamide]", "values": [{"measurement": "IC50", "setting": "[10]; read-out: FGFR4 IC50", "result": "< 1", "unit": "nM"}]}
{"smiles": "C=CC(=O)Nc1ccc(N2CCN(CC)CC2)cc1Nc1cc(N(C)C(=O)Nc2c(Cl)c(OC)cc(OC)c2Cl)ncn1", "note": "[Compound 133, N-[2-{6-[3-(2,6-Dichloro-3,5-dimethoxy-phenyl)-1-methyl-ureido]-pyrimidin-4-ylamino}-4-(4-ethyl-piperazin-1-yl)-phenyl]-acrylamide trifluoroacetic acid salt]", "values": [{"measurement": "IC50", "setting": "[10]; Table 1, read-out: FGFR4 IC50", "result": 4, "unit": "nM"}]}
